Source: PubChem BioAssay AID720508 (The Scripps Research Institute Molecular Screening Center, 2013)
Only a part is listed here, and it is no random draw. Active and inactive are the calls of the source.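 The calls were made as follows: active = inhibition above the mean of compounds falling within the control limits plus 3 SD of them (cut at about 14% in these data); inactive = the rest.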

By UniProt entry, the sequences of proteins in these tests, tags left out.
UniProt P02675, whole entry, looked up: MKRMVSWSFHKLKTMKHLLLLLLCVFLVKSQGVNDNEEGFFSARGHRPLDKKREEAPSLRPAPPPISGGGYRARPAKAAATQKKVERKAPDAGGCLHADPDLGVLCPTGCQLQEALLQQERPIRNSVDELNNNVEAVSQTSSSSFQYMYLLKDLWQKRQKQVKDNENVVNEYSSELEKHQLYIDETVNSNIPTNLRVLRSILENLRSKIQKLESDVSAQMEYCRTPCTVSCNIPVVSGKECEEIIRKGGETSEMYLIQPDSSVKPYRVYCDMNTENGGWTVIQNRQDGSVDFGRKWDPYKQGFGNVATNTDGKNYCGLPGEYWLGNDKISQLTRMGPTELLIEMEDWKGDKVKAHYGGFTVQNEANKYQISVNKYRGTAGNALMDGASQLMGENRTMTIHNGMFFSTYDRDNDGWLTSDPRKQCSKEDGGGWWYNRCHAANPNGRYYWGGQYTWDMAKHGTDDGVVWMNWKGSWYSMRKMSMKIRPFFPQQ

target: Fibrinogen beta chain (Homo sapiens) (UniProt P02675); assay: inhibitors of Tn7 peptide binding to fibrin DD(E), primary screen, biochemical, fluorescence polarization, human fibrin, Tn7 probe (AID 720508); conditions: FP displacement of FITC-Tn7 peptide from fibrin DD(E); at 8.3 µM; hits give high values; 0% = median of compound wells per plate;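 also: 0% = plate median of compound wells and 100% = 10 µM Aha-Tn7 peptide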

| Structure (SMILES) | inhibition |
| --- | --- |
| O=C(NCC1(N2CCOCC2)CCCCC1)c1cc(Br)ccc1Cl | inactive: 2.06% |
| COc1cc(C(=O)NCC2(N3CCOCC3)CCCCC2)cc(OC)c1C | inactive: -2.08% |
| CCCCn1nnnc1C(c1ccccc1)N1CCC(n2c(=O)[nH]c3ccccc32)CC1 (stereo not given) | inactive: 6.27% |
| O=c1[nH]c2ccccc2n1C1CCN(C(c2ccnc3ccccc23)c2nnnn2C2CCCC2)CC1 (stereo not given) | inactive: -8.22% |
| COc1ccc(C(=O)NCC2(N3CCOCC3)CCCCC2)cc1OC | inactive: 0.82% |
| NC(=O)C1(Nc2ccccc2)CCN(Cc2ccccc2)CC1 | inactive: -0.51% |
| O=c1[nH]c2ccccc2n1C1CCN(C(c2cccs2)c2nnnn2C2CCCCC2)CC1 (stereo not given) | inactive: 1.23% |
| N/C(=N\O)c1c(N)no[n+]1[O-] | inactive: -0.78% |
| COc1cccc(C(c2nnnn2C(C)(C)C)N2CCC(n3c(=O)[nH]c4ccccc43)CC2)c1OC (stereo not given) | inactive: 4.42% |
| CCOC(=O)N1CCC(Nc2ccc(C)cc2)CC1 | inactive: -1.18% |
| CCCCn1nnnc1C(c1cccc(OC)c1OC)N1CCC(n2c(=O)[nH]c3ccccc32)CC1 (stereo not given) | inactive: -7.8% |
| O=c1[nH]c2ccccc2n1C1CCN(C(c2cccs2)c2nnnn2C2CCCC2)CC1 (stereo not given) | inactive: -5.38% |
| O=C(OC1CN2CCC1CC2)C1c2ccccc2C=Cc2ccccc21 (stereo not given) | inactive: 7.12% |
| CC(C)(C)OC(=O)N1CCC(N(C(=O)c2ccccc2)c2ccc(Cl)cc2)CC1 | inactive: -7.55% |
| N#Cc1ccc(C(=O)NCC2(N3CCCCC3)CCCCC2)cc1 | inactive: -0.09% |
| O=c1[nH]c2ccccc2n1C1CCN(C(c2ccccc2)c2nnnn2C2CCCC2)CC1 (stereo not given) | inactive: 2.34% |
| CCCN1CCC(Nc2cc(OC)cc(OC)c2)CC1 | inactive: 7.24% |
| Cc1cc(N(CCCl)CCCl)ccc1C=O | inactive: 5.89% |
| c1ccc(CN2CCC(Nc3ccccc3)CC2)cc1 | inactive: 1.31% |
| C/C(N)=N\P(=O)(Oc1ccccc1)Oc1ccccc1 | inactive: -2.79% |
| CN(C)C1(CNC(=O)c2cccc(C#N)c2)CCCCC1 | inactive: 3.8% |
| CC(C)(C)n1nnnc1C(c1cccc2ccccc12)N1CCC(n2c(=O)[nH]c3ccccc32)CC1 (stereo not given) | inactive: 1.93% |

| Structure (SMILES) | inhibition |
| --- | --- |
| O=c1[nH]c2ccccc2n1C1CCN(C(c2ccnc3ccccc23)c2nnnn2C2CCCCC2)CC1 (stereo not given) | inactive: -6.58% |
| COc1cc(OC)cc(C(=O)NCC2(N3CCCCC3)CCCCC2)c1 | inactive: 1.56% |
| CCC(c1nnnn1C1CCCCC1)N1CCC(n2c(=O)[nH]c3ccccc32)CC1 (stereo not given) | inactive: -4.34% |
| CC(=O)N(c1ccccc1)C1CCNCC1 | inactive: 3.69% |
| COc1cccc(C(c2nnnn2C2CCCCC2)N2CCC(n3c(=O)[nH]c4ccccc43)CC2)c1OC (stereo not given) | inactive: 0.61% |
| Cc1ccc(NC2(C#N)CCN(Cc3ccccc3)CC2)cc1 | inactive: 1.75% |
| Fc1ccccc1NC1CCN(Cc2ccccc2)CC1 | inactive: -2.31% |
| Cc1ccc(C(=O)NCC2(N3CCCCC3)CCCCC2)o1 | inactive: 7.32% |
| CC(C)(C)n1nnnc1C(c1ccnc2ccccc12)N1CCC(n2c(=O)[nH]c3ccccc32)CC1 (stereo not given) | inactive: -2.82% |
| COc1ccc(C(c2nnnn2C2CCCCC2)N2CCC(n3c(=O)[nH]c4ccccc43)CC2)cc1 (stereo not given) | inactive: 1.72% |
| CCN1CCC(Nc2cccc(F)c2)CC1 | inactive: -10.3% |
| Cc1ccccc1NC1(C#N)CCN(Cc2ccccc2)CC1 | inactive: -1.71% |
| Cn1c(=O)[nH]cc(N(CCCl)CCCl)c1=O | inactive: -3.73% |
| CN(C)c1ccc(C(=O)NCC2(N3CCCCC3)CCCCC2)cc1 | inactive: 6.27% |
| O=C(NCC1(N2CCCCC2)CCCCC1)c1ccco1 | inactive: 0.99% |
| CN1CCC(Nc2ccc(F)c(Cl)c2)CC1 | inactive: -6.67% |
| CCOc1ncccc1C(=O)NCC1(N2CCOCC2)CCCCC1 | inactive: 6.48% |
| CCCOc1ccc(C(=O)NCC2(N(C)C)CCCCC2)cc1 | inactive: 2.62% |
| O=c1[nH]c2ccccc2n1C1CCN(C(c2cc3ccccc3o2)c2nnnn2C2CCCC2)CC1 (stereo not given) | inactive: 3.73% |
| NN(c1ccccc1)C1CCN(CCc2ccccc2)CC1 | inactive: -0.88% |
| O=C(O)C1(Nc2ccccc2)CCN(Cc2ccccc2)CC1 | inactive: -0.22% |
| CC(C)(C)OC(=O)N1CCC(Nc2ccccc2)CC1 | inactive: 2.06% |

| Structure (SMILES) | inhibition |
| --- | --- |
| CCC(CO)(C(=O)OC1CN2CCC1CC2)c1ccccc1 (stereo not given) | inactive: -4.13% |
| COc1cccc(C(=O)N(c2cc(C)cc(C)c2)C2CCN(C(=O)OC(C)(C)C)CC2)c1 | inactive: -0.06% |
| COc1cc(OC)cc(C(=O)NCC2(N3CCOCC3)CCCCC2)c1 | inactive: -7.37% |
| COc1cccc(C(c2nnnn2C2CCCC2)N2CCC(n3c(=O)[nH]c4ccccc43)CC2)c1OC (stereo not given) | inactive: 1.1% |
| CN1CCC(Nc2ccc(Cl)cc2)CC1 | inactive: 0.82% |
| CCCCn1nnnc1C(c1cccs1)N1CCC(n2c(=O)[nH]c3ccccc32)CC1 (stereo not given) | inactive: 4.48% |
| CCCCn1nnnc1C(CC)N1CCC(n2c(=O)[nH]c3ccccc32)CC1 (stereo not given) | inactive: 3.01% |
| O=C(NCC1(N2CCCCC2)CCCCC1)c1cccs1 | inactive: 0.46% |
| O=C(NCC1(N2CCCCC2)CCCCC1)c1ccc(=O)[nH]c1 | inactive: 0.27% |
| CCC(c1nnnn1C1CCCC1)N1CCC(n2c(=O)[nH]c3ccccc32)CC1 (stereo not given) | inactive: 0.6% |
| COc1ccc(C(=O)NCC2(N3CCCCC3)CCCCC2)c(OC)c1OC | inactive: -2.95% |
| CC(C)(C)OC(=O)N1CCC(N(C(=O)c2ccccc2)c2ccc(F)cc2)CC1 | inactive: 2.5% |
| COc1ccc(C(=O)NCC2(N3CCCCC3)CCCCC2)cc1 | inactive: -2.83% |
| Cc1cccc(NC2(C#N)CCN(Cc3ccccc3)CC2)c1 | inactive: -6.02% |
| CSc1ccccc1C(=O)NCC1(N2CCCCC2)CCCCC1 | inactive: 2.21% |
| O=C(NCC1(N2CCOCC2)CCCCC1)c1cc2ccccc2o1 | inactive: -3.51% |
| Cc1cc(C)cc(N(C(=O)c2ccccc2)C2CCN(C(=O)OC(C)(C)C)CC2)c1 | inactive: -3.37% |
| O=c1[nH]c2ccccc2n1C1CCN(C(c2ccccc2OC(F)(F)F)c2nnnn2C2CCCCC2)CC1 (stereo not given) | inactive: -7.66% |
| O=C(NCC1(N2CCCCC2)CCCCC1)c1ccc(Cl)nc1 | inactive: -1.05% |
| CCCCn1nnnc1C(c1ccc(OC)cc1)N1CCC(n2c(=O)[nH]c3ccccc32)CC1 (stereo not given) | inactive: -1.22% |
| CCOC(=O)N1CCC(Nc2ccc(OC)cc2)CC1 | inactive: -1.92% |
| COc1ccc(Cl)cc1C(=O)NCC1(N2CCOCC2)CCCCC1 | inactive: -5.43% |

| Structure (SMILES) | inhibition |
| --- | --- |
| O=c1[nH]c2ccccc2n1C1CCN(C(c2cc3ccccc3o2)c2nnnn2C2CCCCC2)CC1 (stereo not given) | inactive: 5.93% |
| O=C(OC1CN2CCC1CC2)C1c2ccccc2Oc2ccccc21 (stereo not given) | inactive: -2.48% |
| O=C(NCC1(N2CCCCC2)CCCCC1)c1ccc(Cl)s1 | inactive: -2.41% |
| N#CC1(Nc2ccccc2)CCN(Cc2ccccc2)CC1 | inactive: 10% |
| CCOc1ccc(C)cc1CN(CCCl)CCCl | inactive: -7.44% |
| O=C1CCN(Cc2ccccc2)CC1 | inactive: 5.68% |
| CC(C)(C)n1nnnc1C(c1ccccc1)N1CCC(n2c(=O)[nH]c3ccccc32)CC1 (stereo not given) | inactive: -9.71% |
| CCOC(=O)N1CCC(Nc2ccc(F)cc2)CC1 | inactive: 0.76% |
| COc1ccc(NC2CCN(CCc3ccccc3)CC2)c(OC)c1 | inactive: 0.27% |
| O=C(NCC1(N2CCCCC2)CCCCC1)c1ccc(F)cc1 | inactive: -7.44% |
| CCCCOc1ccc(C(=O)NCC2(N3CCOCC3)CCCCC2)cc1 | inactive: -0.77% |
| CCCCn1nnnc1C(c1cc2ccccc2o1)N1CCC(n2c(=O)[nH]c3ccccc32)CC1 (stereo not given) | inactive: 0.27% |
| O=P1(N(CCCl)CCCl)SCCCS1 | inactive: -1.77% |
| O=c1[nH]c2ccccc2n1C1CCN(C(c2ccccc2)c2nnnn2C2CCCCC2)CC1 (stereo not given) | inactive: 4.25% |
| O=c1[nH]c2ccccc2n1C1CCN(C(c2cccc3ccccc23)c2nnnn2C2CCCC2)CC1 (stereo not given) | inactive: -3.82% |
| COc1cc(C(=O)NCC2(N(C)C)CCCCC2)ccc1OC(F)F | inactive: 2.03% |
| CCOC(=O)N1CCC(Nc2cccc(C)c2)CC1 | inactive: 0.33% |
| O=C(NCC1(N2CCCCC2)CCCCC1)c1ccc(OC(F)F)cc1 | inactive: -0.41% |
| CC(C)(C)n1nnnc1C(c1ccccc1OC(F)(F)F)N1CCC(n2c(=O)[nH]c3ccccc32)CC1 (stereo not given) | inactive: 6.91% |
| O=C(NCC1(N2CCCCC2)CCCCC1)c1cccc([N+](=O)[O-])c1 | inactive: -3.9% |
| CSc1ccc(C(=O)NCC2(N3CCOCC3)CCCCC2)cc1 | inactive: -3.7% |
| N#CC1(Nc2ccccc2)CCN(CCc2ccccc2)CC1 | inactive: 3.32% |

| Structure (SMILES) | inhibition |
| --- | --- |
| O=c1[nH]c2ccccc2n1C1CCN(C(c2ccccc2OC(F)(F)F)c2nnnn2C2CCCC2)CC1 (stereo not given) | inactive: 2.58% |
| CCN1CCC(Nc2ccc(Cl)cc2)CC1 | inactive: 4.95% |
| O=C(NCC1(N2CCCCC2)CCCCC1)c1cccc(C(F)(F)F)c1 | inactive: 5.65% |
| CCCCn1nnnc1C(c1cccc2ccccc12)N1CCC(n2c(=O)[nH]c3ccccc32)CC1 (stereo not given) | inactive: 2.67% |
| COc1ccc(NC2CCN(C(=O)OC(C)(C)C)CC2)cc1 | inactive: 0.87% |
| CC(C)c1ccc(C(=O)NCC2(N3CCOCC3)CCCCC2)cc1 | inactive: -3.24% |
| CN1CCN(CCOC(=O)C(O)(c2ccccc2)c2ccccc2)CC1 | inactive: -3.23% |
| O=C(NCC1(N2CCOCC2)CCCCC1)c1cc(=O)[nH]c2ccccc12 | inactive: -0.3% |
| COc1cc(C(=O)NCC2(N3CCCCC3)CCCCC2)ccc1OC(F)F | inactive: 0.88% |
| CN(C)c1cccc(C(=O)NCC2(N3CCCCC3)CCCCC2)c1 | inactive: 4.3% |
| COC(=O)C1(Nc2ccccc2)CCN(Cc2ccccc2)CC1 | inactive: 1.9% |
| COc1ccc(CN(CCCl)CCCl)cc1Cl | inactive: -3.07% |
| CC(C)c1ccc(NC2CCN(C(=O)OC(C)(C)C)CC2)cc1 | inactive: 3.06% |
| CCCCn1nnnc1C(c1ccnc2ccccc12)N1CCC(n2c(=O)[nH]c3ccccc32)CC1 (stereo not given) | inactive: 4.16% |
| O=C(NCC1(N2CCOCC2)CCCCC1)c1cc(F)c(F)cc1Cl | inactive: -5.24% |
| CCC(c1nnnn1C(C)(C)C)N1CCC(n2c(=O)[nH]c3ccccc32)CC1 (stereo not given) | inactive: 2.05% |
| COc1cc(OC)c(C(=O)NCC2(N(C)C)CCCCC2)cc1OC | inactive: 0.72% |
| O=C(NCC1(N2CCCCC2)CCCCC1)c1cncc(Br)c1 | inactive: 3.08% |
| CN1CCC(Nc2cccc(F)c2)CC1 | inactive: 1.05% |
| CCCOc1ccc(C(=O)NCC2(N(C)C)CCCCC2)cc1OC | inactive: 1.46% |
| Cc1ccc(C(=O)NCC2(N(C)C)CCCCC2)o1 | inactive: -2.37% |
| COc1ccc(C(c2nnnn2C2CCCC2)N2CCC(n3c(=O)[nH]c4ccccc43)CC2)cc1 (stereo not given) | inactive: -10.4% |
